Measured values from publication PMC6627609 (2019).

Protein sequences, listed by entry. Tags and fused reporters are not part of them. Lines headed by an entry give the natural chain unless they say otherwise; changes in a name come on top.
UniProt Q8ZKQ6: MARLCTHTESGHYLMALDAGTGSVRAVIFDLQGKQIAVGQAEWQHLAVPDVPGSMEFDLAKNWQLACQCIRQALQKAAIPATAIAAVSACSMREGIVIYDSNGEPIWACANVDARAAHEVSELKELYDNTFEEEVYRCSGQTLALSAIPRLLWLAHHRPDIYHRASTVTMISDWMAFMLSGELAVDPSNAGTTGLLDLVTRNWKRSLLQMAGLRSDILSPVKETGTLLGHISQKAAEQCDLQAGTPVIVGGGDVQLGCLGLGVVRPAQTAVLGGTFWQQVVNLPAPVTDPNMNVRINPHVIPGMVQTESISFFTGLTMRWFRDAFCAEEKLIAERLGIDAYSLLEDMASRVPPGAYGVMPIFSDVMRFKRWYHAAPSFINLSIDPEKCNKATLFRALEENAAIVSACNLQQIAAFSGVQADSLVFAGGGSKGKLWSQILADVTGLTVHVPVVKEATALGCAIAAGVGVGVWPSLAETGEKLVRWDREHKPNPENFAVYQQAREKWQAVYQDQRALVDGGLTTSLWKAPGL

Biological target: LsrK (Salmonella typhimurium, UniProt Q8ZKQ6)
Details: 50 µM

Compound | Inhibition (%)
O=S(=O)([O-])c1cc(N=C=S)ccc1C=Cc1ccc(N=C=S)cc1S(=O)(=O)[O-].[Na+].[Na+] [4.4'-DIISOTHIOCYANOSTILBENE-2.2'-SUFONIC ACID SODIUM SALT] | 141
THIMEROSAL | 141
